Target: GCN2 (Homo sapiens, UniProt Q9P2K8)
Assay: GCN2 enzyme assay (TR-FRET Lanthascreen, GFP-eIF2alpha phosphorylation)
Format: biochemical
Settings: read-out: IC50 GCN2 (enzyme assay); 10 μM ATP, 80 nM GFP-eIF2a, 30 nM GCN2

The chains behind the UniProt entries cited, without tags or fusion partners.
UniProt Q9P2K8, whole entry: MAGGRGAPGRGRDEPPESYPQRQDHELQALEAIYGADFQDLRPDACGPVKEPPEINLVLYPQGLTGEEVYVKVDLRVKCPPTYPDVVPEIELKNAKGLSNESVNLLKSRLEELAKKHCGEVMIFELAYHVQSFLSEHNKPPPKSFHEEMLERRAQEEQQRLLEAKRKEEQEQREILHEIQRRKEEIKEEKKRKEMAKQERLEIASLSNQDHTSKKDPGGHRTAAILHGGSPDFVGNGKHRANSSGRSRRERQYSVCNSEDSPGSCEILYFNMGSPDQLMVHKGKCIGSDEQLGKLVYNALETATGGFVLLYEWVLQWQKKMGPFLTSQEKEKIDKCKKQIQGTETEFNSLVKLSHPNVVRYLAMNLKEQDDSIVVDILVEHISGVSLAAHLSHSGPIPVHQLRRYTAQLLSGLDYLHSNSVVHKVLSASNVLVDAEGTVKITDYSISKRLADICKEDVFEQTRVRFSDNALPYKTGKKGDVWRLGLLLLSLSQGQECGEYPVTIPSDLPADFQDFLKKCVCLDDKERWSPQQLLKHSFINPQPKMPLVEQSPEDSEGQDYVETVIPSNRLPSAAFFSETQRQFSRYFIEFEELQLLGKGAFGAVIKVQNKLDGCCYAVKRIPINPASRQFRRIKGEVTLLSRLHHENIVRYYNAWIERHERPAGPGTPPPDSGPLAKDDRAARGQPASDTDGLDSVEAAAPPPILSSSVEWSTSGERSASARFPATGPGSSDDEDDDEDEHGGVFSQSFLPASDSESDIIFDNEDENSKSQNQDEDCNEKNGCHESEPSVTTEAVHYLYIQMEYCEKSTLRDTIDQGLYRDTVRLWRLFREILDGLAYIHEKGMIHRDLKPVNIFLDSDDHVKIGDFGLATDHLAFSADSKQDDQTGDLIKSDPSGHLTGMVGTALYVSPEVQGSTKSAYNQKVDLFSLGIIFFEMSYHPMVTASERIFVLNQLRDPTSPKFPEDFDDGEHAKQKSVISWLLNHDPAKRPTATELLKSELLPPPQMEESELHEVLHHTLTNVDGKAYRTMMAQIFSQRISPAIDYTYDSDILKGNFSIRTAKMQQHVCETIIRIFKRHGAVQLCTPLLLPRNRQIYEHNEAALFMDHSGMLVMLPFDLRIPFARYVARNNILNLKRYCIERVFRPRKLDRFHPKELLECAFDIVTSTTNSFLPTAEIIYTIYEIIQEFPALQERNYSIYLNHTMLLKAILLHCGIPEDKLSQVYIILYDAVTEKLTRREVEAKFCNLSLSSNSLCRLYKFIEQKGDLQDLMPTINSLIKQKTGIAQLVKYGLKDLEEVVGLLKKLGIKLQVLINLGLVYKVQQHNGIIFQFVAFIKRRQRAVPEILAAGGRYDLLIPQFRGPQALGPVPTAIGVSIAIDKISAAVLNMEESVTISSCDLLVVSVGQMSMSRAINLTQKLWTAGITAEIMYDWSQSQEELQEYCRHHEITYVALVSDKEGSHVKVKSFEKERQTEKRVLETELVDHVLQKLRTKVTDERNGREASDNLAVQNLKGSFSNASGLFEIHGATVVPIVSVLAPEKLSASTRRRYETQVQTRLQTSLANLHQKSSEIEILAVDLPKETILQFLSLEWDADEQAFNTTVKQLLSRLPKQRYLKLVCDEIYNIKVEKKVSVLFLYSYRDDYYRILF

| Structure (SMILES) | IC50 [nM] |
| --- | --- |
| NC(=O)[C@@H]1CC[C@@H](Nc2ncc3nnn(-c4ccc(OCC(O)(C(F)(F)F)C(F)(F)F)cc4)c3n2)C1 | < 1000 |
| COc1ccc(-n2nnc3cnc(NC4CCC(O)C4)nc32)cc1 (single isomer, unassigned) | < 1000 |

Source: patent publication US9855268B2, “Triazolo[4,5-d]pyrimidine derivatives” (Merck Patent GmbH, priority 2013, dated 2018)
